Measured values from paper PMC3677530 (Analytical biochemistry, 2013).

The chains behind the UniProt entries cited, without tags or fusion partners.
UniProt P21554, whole entry: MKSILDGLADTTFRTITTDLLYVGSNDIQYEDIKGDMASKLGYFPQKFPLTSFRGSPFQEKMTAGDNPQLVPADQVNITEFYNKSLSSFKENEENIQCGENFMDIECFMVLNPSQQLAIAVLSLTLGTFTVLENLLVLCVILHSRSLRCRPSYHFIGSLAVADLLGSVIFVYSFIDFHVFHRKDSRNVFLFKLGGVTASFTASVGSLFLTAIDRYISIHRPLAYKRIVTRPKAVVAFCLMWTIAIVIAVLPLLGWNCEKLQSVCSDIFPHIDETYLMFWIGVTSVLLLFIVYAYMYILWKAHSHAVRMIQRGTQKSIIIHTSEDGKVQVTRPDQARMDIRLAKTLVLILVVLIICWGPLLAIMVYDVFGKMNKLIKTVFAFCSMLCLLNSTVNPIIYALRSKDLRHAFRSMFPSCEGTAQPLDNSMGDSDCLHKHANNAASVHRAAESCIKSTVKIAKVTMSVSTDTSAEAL
UniProt P34972, whole entry: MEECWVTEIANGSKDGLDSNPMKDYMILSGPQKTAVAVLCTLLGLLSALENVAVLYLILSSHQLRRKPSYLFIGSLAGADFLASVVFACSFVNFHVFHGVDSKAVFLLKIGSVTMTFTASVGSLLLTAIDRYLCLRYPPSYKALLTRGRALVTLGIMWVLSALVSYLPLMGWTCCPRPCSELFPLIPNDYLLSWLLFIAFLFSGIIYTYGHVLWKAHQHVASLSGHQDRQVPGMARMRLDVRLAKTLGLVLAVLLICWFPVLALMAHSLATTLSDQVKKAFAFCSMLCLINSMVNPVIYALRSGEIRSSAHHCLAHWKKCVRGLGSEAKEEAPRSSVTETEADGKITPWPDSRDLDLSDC

Experiments:
[1] = target: human cannabinoid CB1 receptor (Homo sapiens, UniProt P21554)
[2] = target: human cannabinoid CB2 receptor (Homo sapiens, UniProt P34972); conditions: 2 nM [3H]-CP55,940, CHO-CB2

SMILES: Cc1c(C(=O)NN2CCOCC2)nn(-c2ccc(Cl)cc2Cl)c1-c1ccc(I)cc1 [AM281]
- inhibition of internalization (CB1) [1]: 32.1%

SMILES: CCNC1(C(N)=O)CCN(c2ncnc3c2nc(-c2ccccc2Cl)n3-c2ccc(Cl)cc2)CC1 [Otenabant]
- inhibition of internalization (CB2) [2]: 37.6%
